For one data set, the system named is Ba/F3 ITD N676K. In words: Cell cycle / subG1 fraction in Ba/F3 mutants, flow cytometry. The data set is classed as cell-based, murine. To be noted: 5 nM, 48 h. The procedure: Cells were stained with PI; cell cycle was analyzed by flow cytometry.
After incubation, cells were harvested on ice and fixed in 80% ethanol at −20° C. for at least 1 h. Next, the cells were incubated with RNase for 30 min at room temperature, thereafter stained with propidium iodide (PI), and measured immediately with a flow cytometer. PI intercalates into DNA. In the different phases of the cell cycle, cells incorporate various amounts of PI. This allows the quantification of the cell cycle phases. The subG1 population represents the fraction of apoptotic/necrotic cells, which contains only fragmented DNA (DNA content <2N).
As described in the introduction there are several mutations next to ITDs that lead to reduce efficiency or to resistance against FLT3i treatment. The murine pro B cell line Ba/F3 and different mutant forms were analyzed. The proliferation of Ba/F3 wild type (WT) cells is dependent of interleukin-3 (IL-3). These cells were cultivated with 10% WEHI.
The WT and the different mutants were stained with PI and cell cycle distribution was analyzed by flow cytometry.

For a further data set, the system named is FLT3 plus KIT. The settings on record: leukemic patients; Smith, Lasater et al. 2014; cited from earlier work.
The next data set concerns Ba/F3 ITD N676K mutant. In words: FLT3 signaling in Ba/F3 mutants, Western blot. To be noted: 5 nM, 2 h.

The text below walks through data of patent US11384076B2, “Synthesis, pharmacology and use of new and selective FMS-like tyrosine kinase 3 (FLT3) FLT3 inhibitors” (UNIVERSITÄT REGENSBURG, priority 2017, dated 2022).

As for `CC(C)(C)c1cc(NC(=O)Nc2ccc(-c3cn4c(n3)sc3cc(OCCN5CCOCC5)ccc34)cc2)no1.Cl.Cl` [AC220, N-(5-tert-Butyl-isoxazol-3-yl)-N′-{4-[7-(2-morpholin-4-yl-ethoxy)imidazo[2,1-b][1,3]benzothiazol-2-yl]phenyl}urea Dihydrochloride, reference compound], in the data set with Ba/F3 ITD N676K, the subG1 fraction entry is reported as “clear increase”. In addition, the myelosuppression entry in the data set on FLT3 plus KIT is “severe myelosuppression”. Further, in the data set on Ba/F3 ITD N676K mutant, the “signal of p-FLT3” value was “clear reduction”.
